The results in this text go back to paper PMC5207538, “Substrates and Inhibitors of SAMHD1” (PLoS ONE, 2017).

Substrate in this series: Cc1cn([C@H]2C[C@H](O)[C@@H](COP(=O)(O)OP(=O)(O)OP(=O)(O)O)O2)c(=O)[nH]c1=O
The series can be described thus: purified protein. As to conditions: Mg2+ ([…] MgCl2); GTP activator catalytic site.

B1: SAMHD1 (Homo sapiens) (protein)
chain: MQRADSEQPSKRPRCDDSPRTPSNTPSAEADWSPGLELHPDYKTWGPEQVCSFLRRGGFEEPVLLKNIRENEITGALLPCLDESRFENLGVSSLGERKKLLSYIQRLVQIHVDTMKVINDPIHGHIELHPLLVRIIDTPQFQRLRYIKQLGGGYYVFPGASHNRFEHSLGVGYLAGCLVHALGEKQPELQISERDVLCVQIAGLCHDLGHGPFSHMFDGRFIPLARPEVKWTHEQGSVMMFEHLINSNGIKPVMEQYGLIPEEDICFIKEQIVGPLESPVEDSLWPYKGRPENKSFLYEIVSNKRNGIDVDKWDYFARDCHHLGIQNNFDYKRFIKFARVCEVDNELRICARDKEVGNLYDMFHTRNSLHRRAYQHKVGNIIDTMITDAFLKADDYIEITGAGGKKYRISTAIDDMEAYTKLTDNIFLEILYSTDPKLKDAREILKQIEYRNLFKYVGETQPTGQIKIKREDYESLPKEVASAKPKVLLDVKLKAEDFIVDVINMDYGMQEKNPIDHVSFYCKTAPNRAIRITKNQVSQLLPEKFAEQLIRVYCKKVDRKSLYAARQYFVQWCADRNFTKPQDGDVIAPLITPQKKEWNDSTSVQNPTRLREASKSRVQLFKDDPM
As to B1, the Km (as a rule, the substrate concentration at which the rate is half of its maximum) worked out at 845 ± 229 µM.
